Among the data in patent publication US10441562B2, “Aromatic farnesyl compound and application thereof” (INSTITUTE OF MICROBIOLOGY, CHINESE ACADEMY OF SCIENCES, priority 2015, dated 2019) are IC50 values, retold here.

pIC50: −log10 of the molar value.

The target in the assay is T1, protein tyrosine phosphatase 1B (PTP-1B) (Homo sapiens, UniProt P18031).
T1 sequence (P18031 1-435): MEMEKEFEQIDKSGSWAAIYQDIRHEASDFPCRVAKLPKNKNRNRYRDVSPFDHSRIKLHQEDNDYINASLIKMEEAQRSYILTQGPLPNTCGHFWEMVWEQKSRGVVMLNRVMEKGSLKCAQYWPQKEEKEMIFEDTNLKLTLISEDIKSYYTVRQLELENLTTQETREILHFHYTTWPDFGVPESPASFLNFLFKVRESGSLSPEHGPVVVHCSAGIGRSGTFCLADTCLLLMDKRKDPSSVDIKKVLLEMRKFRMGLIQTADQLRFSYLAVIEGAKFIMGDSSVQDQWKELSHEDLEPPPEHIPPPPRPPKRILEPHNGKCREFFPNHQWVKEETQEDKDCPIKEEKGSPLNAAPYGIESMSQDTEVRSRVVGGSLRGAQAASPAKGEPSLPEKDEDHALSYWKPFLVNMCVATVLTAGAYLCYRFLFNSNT
The settings on record: read-out: PTP-1B inhibitory activity, IC50.

For the substance sodium vanadate [reference compound], the pIC50 (usually −log10 of the IC50, conventionally taken in molar units) is 5.85.
